The values below come from paper PMC11272584 (Nature Metabolism, 2024).

Numbering of substitutions follows the chain as printed.

One assay has as its target T1, GIPR V99I (Homo sapiens, UniProt P48546, V99I).
T1 sequence (P48546 22-466 V99I): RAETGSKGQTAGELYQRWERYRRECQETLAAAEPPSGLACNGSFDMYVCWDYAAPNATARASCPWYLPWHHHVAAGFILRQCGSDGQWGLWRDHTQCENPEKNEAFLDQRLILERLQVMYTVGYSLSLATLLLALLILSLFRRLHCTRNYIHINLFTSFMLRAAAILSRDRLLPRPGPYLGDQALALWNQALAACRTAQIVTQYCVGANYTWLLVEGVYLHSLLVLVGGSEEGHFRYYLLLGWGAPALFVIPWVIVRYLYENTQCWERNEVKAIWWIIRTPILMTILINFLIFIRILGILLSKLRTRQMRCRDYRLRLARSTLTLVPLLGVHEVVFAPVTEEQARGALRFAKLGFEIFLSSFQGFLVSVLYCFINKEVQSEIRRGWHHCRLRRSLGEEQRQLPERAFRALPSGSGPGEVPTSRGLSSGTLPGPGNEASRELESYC
The conditions noted are these: GIPR V99I (ECD), mean, n = 5, duplicate.

In a further assay the target is T2, GIPR I221M (Homo sapiens, UniProt P48546, I221M).
T2 sequence (P48546 22-466 I221M): T1 sequence (P48546 22-466 V99I) with I78V, I200M
As to conditions: GIPR I221M (3.34), mean, n = 3, duplicate.

The next assay concerns the target T3, GIPR E463Q (Homo sapiens, UniProt P48546, E463Q).
T3 sequence (P48546 22-466 E463Q): T1 sequence (P48546 22-466 V99I) with I78V, E442Q
The conditions noted are these: GIPR E463Q (ICD), mean, n = 3, duplicate.

The target of the next assay is T4, GIPR A207V (Homo sapiens, UniProt P48546, A207V).
T4 sequence (P48546 22-466 A207V): T1 sequence (P48546 22-466 V99I) with I78V, A186V
The assay is described as follows: cAMP accumulation. The assay is classed as cell-based. Also noted: host or cells: HEK293.

Another assay concerns the target T5, GIPR S382T (Homo sapiens, UniProt P48546, S382T).
T5 sequence (P48546 22-466 S382T): T1 sequence (P48546 22-466 V99I) with I78V, S361T
Briefly: cAMP accumulation. Type of assay: cell-based. Also noted: host or cells: HEK293.

Where [1] appears, read: HEK293, GIP(1–42) 1 pM–100 nM, 30 min 37 °C, mean of n = 6.
[2] abbreviates: HEK293, Hill slope 1.0, mean of n = 6.

As for “glucose-dependent insulinotropic polypeptide [GIP]”, the “logEC50 (Arrestin)” value is recorded as -8.9 on GIPR V99I (Hill slope 1.0), -9.4 at GIPR I221M (Hill slope 1.0) and -9.1 at GIPR E463Q (Hill slope 1.0). Besides, the “Arrestin (Emax)” value is reported as 62 at GIPR V99I (normalized to WT GIPR), 20 on GIPR I221M (normalized to WT GIPR) and 49 on GIPR E463Q (normalized to WT GIPR). Also, the “cAMP (Emax)” value at GIPR A207V (setting [1]) was 20 % of WT GIPR activity; on GIPR S382T (setting [1]), 105 % of WT GIPR activity. Besides, the “logEC50 (cAMP)” value at GIPR A207V (setting [2]) is given as -9.9; on GIPR S382T (setting [2]) it was -9.1.
